Laboratory results taken from patent US8591865B2, “Renal function analysis method and apparatus” (Pharmacophotonics, Inc., priority 2008, dated 2013).

Columns and labels:
dogs = assay: Gentamycin-induced acute kidney injury in dogs: serum creatinine, BUN, USG, UPC; type: in vivo, dog; details: all five study dogs
Source text: Five spayed female young adult hound-type mogrel dogs were confirmed to be in good health based on physical examination, complete blood count, blood chemistry analysis, urinalysis, urine protein-to-creatine ratio (UPC) and aerobic urine culture.

[1] = GFR by iohexol plasma clearance in gentamycin-induced AKI dogs; type: in vivo, dog; details: Day 0, 150 mg/kg iohexol IV, individual dogs (repeat results for two dogs)
Experimental: EDTA-anticoagulated blood was collected at 0, 5, 10, 20, 30, 60, 180, 240 and 300 minutes post-injection, centrifuged within 3 hours, and stored at -20° C.

| Compound | increases over baseline serum creatinine (dogs) | GFR: Iohexol Plasma Clearance [1] [mL/min/kg] |
| --- | --- | --- |
| gentamycin | Greater than 25% |  |
| CC(=O)N(CC(O)CO)c1c(I)c(C(=O)NCC(O)CO)c(I)c(C(=O)NCC(O)CO)c1I (centres unmarked) [iohexol] |  | 4.49 |
